Assays:
SERT = SERT (Homo sapiens, UniProt P31645); assay: hSERT membrane radioligand binding assay (3H-citalopram); settings: hSERT membranes (HEK-293), 1.0 nM 3H-citalopram; tested form: TFA
NET = NET (Homo sapiens, UniProt P23975); assay: hNET membrane radioligand binding assay (3H-nisoxetine); settings: hNET membranes (HEK-293), 1.0 nM 3H-nisoxetine; tested form: TFA

By UniProt entry, the sequences of proteins in these tests, tags left out.
UniProt P31645, whole entry: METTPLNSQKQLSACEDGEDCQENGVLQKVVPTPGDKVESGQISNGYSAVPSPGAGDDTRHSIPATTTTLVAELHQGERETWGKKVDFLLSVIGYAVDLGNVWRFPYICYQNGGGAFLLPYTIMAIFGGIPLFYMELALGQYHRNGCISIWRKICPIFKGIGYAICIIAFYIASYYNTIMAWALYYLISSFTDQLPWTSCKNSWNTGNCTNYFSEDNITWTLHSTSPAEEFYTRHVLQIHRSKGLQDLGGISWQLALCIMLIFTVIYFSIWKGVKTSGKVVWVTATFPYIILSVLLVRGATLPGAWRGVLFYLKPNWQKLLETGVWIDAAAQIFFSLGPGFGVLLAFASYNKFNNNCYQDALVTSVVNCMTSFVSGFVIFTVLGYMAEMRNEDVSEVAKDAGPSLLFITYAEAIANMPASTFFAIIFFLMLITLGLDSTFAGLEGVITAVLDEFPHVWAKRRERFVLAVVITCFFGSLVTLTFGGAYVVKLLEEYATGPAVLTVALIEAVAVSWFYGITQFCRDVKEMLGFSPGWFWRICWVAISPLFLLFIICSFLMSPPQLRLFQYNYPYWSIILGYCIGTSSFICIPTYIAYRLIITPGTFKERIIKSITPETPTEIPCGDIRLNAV
UniProt P23975, whole entry: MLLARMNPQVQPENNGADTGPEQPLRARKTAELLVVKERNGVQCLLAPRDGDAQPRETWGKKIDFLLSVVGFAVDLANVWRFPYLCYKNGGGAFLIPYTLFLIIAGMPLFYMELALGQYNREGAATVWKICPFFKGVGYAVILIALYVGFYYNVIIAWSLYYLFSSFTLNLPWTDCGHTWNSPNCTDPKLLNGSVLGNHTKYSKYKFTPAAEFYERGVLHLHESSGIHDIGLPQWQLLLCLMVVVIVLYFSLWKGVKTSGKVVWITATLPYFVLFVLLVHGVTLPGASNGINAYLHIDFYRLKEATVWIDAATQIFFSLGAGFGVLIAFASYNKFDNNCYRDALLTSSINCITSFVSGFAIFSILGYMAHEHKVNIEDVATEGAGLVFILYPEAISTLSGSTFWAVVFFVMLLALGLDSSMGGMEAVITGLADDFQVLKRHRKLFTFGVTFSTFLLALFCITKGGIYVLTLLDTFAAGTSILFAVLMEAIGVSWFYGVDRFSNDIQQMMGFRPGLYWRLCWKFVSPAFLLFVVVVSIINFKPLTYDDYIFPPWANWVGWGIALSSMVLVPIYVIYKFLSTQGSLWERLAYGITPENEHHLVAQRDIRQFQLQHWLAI

## CSCCC(Oc1ccc(Cl)cc1C(F)(F)F)C1CCNC1 (centres unmarked)
SERT
  SERT pKi: ≧8.0
NET
  NET pKi: ≧7.0
